Laboratory results reported in patent US20050250820A1, “Therapeutic modulation of PPARgamma activity” (Amgen Inc., priority 2004, published 2005).

Amino acid sequences for entries named in this document (tags omitted).
UniProt P37231, whole entry: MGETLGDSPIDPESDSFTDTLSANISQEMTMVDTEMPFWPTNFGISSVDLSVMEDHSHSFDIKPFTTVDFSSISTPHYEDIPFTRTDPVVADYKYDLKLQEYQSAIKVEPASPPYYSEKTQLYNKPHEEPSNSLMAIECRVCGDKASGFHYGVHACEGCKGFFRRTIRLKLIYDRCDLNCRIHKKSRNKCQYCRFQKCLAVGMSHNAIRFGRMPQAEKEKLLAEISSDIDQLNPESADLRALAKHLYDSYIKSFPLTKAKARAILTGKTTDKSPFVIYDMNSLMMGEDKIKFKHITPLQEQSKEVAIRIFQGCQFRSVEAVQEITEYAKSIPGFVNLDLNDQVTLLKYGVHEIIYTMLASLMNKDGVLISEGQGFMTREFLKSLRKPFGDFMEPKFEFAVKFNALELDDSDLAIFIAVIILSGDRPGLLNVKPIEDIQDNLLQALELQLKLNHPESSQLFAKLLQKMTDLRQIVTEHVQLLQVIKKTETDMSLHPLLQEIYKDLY

Key:
PPARγ = PPARγ (UniProt P37231); experiment: PPARγ ligand binding assay utilizing [3H]-BRL 49653 as the radioligand; settings: concentration required to reduce specific binding by 50%
KK-Ay mice = experiment: anti-diabetic efficacy in KK-Ay mice (change in serum glucose levels); settings: 0.018% (30 mg/kg) dietary admixture in powdered diet, change in serum glucose levels compared to untreated control animals

| Compound | IC50 (PPARγ) | KKAy Glucose (KK-Ay mice) |
| --- | --- | --- |
| O=S(=O)(Nc1ccc(Sc2ccc(Cl)c(Cl)c2)c(Cl)c1)c1ccc(Cl)c(Cl)c1 | < 10000 nM |  |
| O=S(=O)(Nc1ccc(Sc2ccc(Cl)c(Cl)c2)c(Cl)c1)c1ccc(I)cc1 | < 10000 nM |  |
| O=S(=O)(Nc1ccc(Sc2ccc(Cl)c(Cl)c2)c(Cl)c1)c1ccc(Cl)cc1Cl | < 1000 nM |  |
| O=S(=O)(Nc1cc(Cl)c(Nc2nc3ccc(Cl)cc3s2)c(Cl)c1)c1ccc(C(F)(F)F)cc1Cl | < 1000 nM | + ((+) 10% to 20%) |
| Cc1ccc2nc(Nc3c(Cl)cc(NS(=O)(=O)c4ccc(C(F)(F)F)cc4Cl)cc3Cl)sc2c1 | < 1000 nM | − ((−) <10%) |
